# Test results reported in patent publication US4757079A, “Anti-hypertensive piperidine compounds” (Dynamac Corporaton, priority 1986, dated 1988).
# Where a name gives a salt, the structure may show the parent alone.
# Tested on: release of acetylcholine
# Conditions: after 17.5 mg/L; in the presence of DFP
structure (smiles),measurement,value
"CN1CCC(/C=C/c2cccc3ccccc23)CC1 [B-120, 1-methyl-4-(1-naphthylvinyl)piperidine hydrochloride]",acetylcholine release after removal of the B-120,returned to normal after removal of the B-120 indicating that the block was reversible
